The series deals with 621-101 cells. Particulars: cells lacking TSC2; in the absence of rapamycin. The method, then: Candidate compounds were screened for cytotoxic or anti-proliferative activity in cells lacking TSC2.
The screen is being performed in 621-101 cells (which are derived from an angiomyolipoma (AML) of a patient with LAM and have a bi-allelic TSC2 inactivating mutation). The 621-101 cells are plated at 1250 cells/well in 384-well plates and grown overnight. Compound libraries are then added at the ICCB and allowed to incubate for 48-72 h. […] Treatment with staurosporine (1-2 uM) represents a positive control for cell death.
The inventors screened the Known Bioactives Collection at the ICCB which consists of approximately 7,000 compounds.

As for `CN1CCCC1c1cccnc1.O=C(O)C(O)C(O)C(=O)O.O=C(O)C(O)C(O)C(=O)O` (stereo not shown) [nicotine ditartrate], the “cytotoxic or antiproliferative activity” value was “cytotoxic or antiproliferative activity in the absence of rapamycin”.

Source of the values: patent US20160129030A1, “TREATMENT OF MTOR HYPERACTIVE RELATED DISEASES AND DISORDERS” (priority 2013, published 2016).
